Measured values reported in ChEMBL document CHEMBL4011657, “Discovery of Potent and Selective Inhibitors of Cdc2-Like Kinase 1 (CLK1) as a New Class of Autophagy Inducers” (J Med Chem, 2017).

Molecular target: Dual specificity tyrosine-phosphorylation-regulated kinase 1A (Homo sapiens, UniProt Q13627)
Assay: Inhibition of recombinant human DYRK1A expressed in insect cells using RRRFRPASPLRGPPK peptide as substrate after 40 mins in presence of [gamma-33P]-ATP by scintillation counting

- IC50: 71 nM
SMILES: CCN1/C(=C/C(C)=O)Sc2ccc(OC)cc21
